FN deposit inh: fibronectin deposition inhibition. AH1F fibroblasts, Alexa488-fibronectin deposition fluorescence, overnight. 350,000 compounds, 0.086% hits. inhibition, % at 12.6 µM;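 active = mean inhibition across replicates of 30% or more, regardless of how many single replicates reach that level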
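Material: AH1F fibroblast monolayer depositing Alexa488-labelled fibronectin into matrix | Input: 10000 AH1F cells/well | Medium: DMEM plus 2% serum, read in PBS | Reagent: Alexa488-fibronectin, 24 nM final in well | Compound dosing: One dose per compound, pinned | Schedule: 1 h adhesion, overnight exposure | Measured by: Fluorescence at 485 nm excitation, 525 nm emission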
hiPSC survival: enhancers of human iPSC single-cell survival; hiPSC single-cell survival, ATPlite luminescence; 100% = ROCK inhibitor wells, 0% = DMSO; survival enhancement, % at 20 µM; 360,000 compounds, 0.044% hits; in the data active = survival enhancement above about 18%;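 also: cells exposed to compounds for 16 hours before the ATP read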
PGC1a acetyl inh: modulators of PGC1a acetylation; inhibition, % at 15.6 µM; U2OS PGC1a acetylation, AlphaScreen anti-acetyl-lysine; with virally co-expressed GCN5 acetyltransferase; AID 651687; 350,000 compounds, 0.17% hits;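 active = every replicate shows inhibition of at least 40%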
Statin myotox sup: suppression of simvastatin myotoxicity; C2C12 myotubes + simvastatin, ATP luminescence, 48 h; scaled: DMSO 0, geranylgeraniol control 100; rescue of ATP level, % at 7.49 µM; 330,000 compounds, 0.78% hits; AID 602340;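 active = mean ATP rescue above about 67%, or every replicate alone reaching that limit, limit read from the data, passing the limit was not always enough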;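 also: myotubes were challenged with 10 µM simvastatin during compound exposure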
Yeast UUG start-1: alters start codon recognition fidelity in yeast | S. cerevisiae UUG-firefly luciferase reporter, luminescence/redox ratio | activity score, % at 18.7 µM | 350,000 compounds, 0.13% hits | AID 602363;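 active = replicate mean at a twofold rise or more, about +100% in these data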;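 note: firefly luciferase made from a UUG start codon reports start codon fidelity; reporter light over untreated wells divided by growth signal over untreated wells; some hits fall short of that in this replicate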
Yeast UUG start-2: modulators of start codon recognition fidelity in yeast | S. cerevisiae UUG-start firefly luciferase, luminescence, 4 h; 100% means double the DMSO signal | AID 652061 | activation, % at 38 µM | 540 tested, under 10 active | shares compounds with Yeast UUG start-1;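 active = signal increase whose fitted curve reaches an absolute level of 40 at a concentration under 10 µM; inactive = activity opposite to the expected increase, or the rest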
Numbers stand for hits; – = inactive; · = no result; ! = repeats disagree. In the library only some 0.91% were active in any assay of this set; here they are far more common.

SMILES | FN deposit inh | hiPSC survival | PGC1a acetyl inh | Statin myotox sup | Yeast UUG start-1 | Yeast UUG start-2
CCN(CCCNc1cc2c(c(N)c1S(=O)(=O)O)C(=O)c1ccccc1C2=O)c1ccccc1 | – | – | · | · | 135 | –
O=S(=O)(NC1=NCCCCC1)c1ccccc1Cl | – | – | – | – | 446 | –
Cc1ccccc1S(=O)(=O)NC1=NCCCCC1 | – | – | – | – | · | ·
O=C(Cn1cc(C(=O)C2CCCCC2)c2ccccc21)NCC1CCCO1 (stereo unspecified) | · | – | – | – | – | –
CC1CCN(C(=O)Cn2cc(C(=O)C3CC3)c3ccccc32)CC1 | · | – | – | – | – | –
Cc1cc(SCC(=O)NC2CC2)nc2ccccc12 | – | – | – | – | – | ·
O=Cc1cn(CC(=O)NCC2CCCO2)c2ccccc12 (stereo unspecified) | · | – | – | – | – | ·
CCN(CC)C(=O)C(=O)c1cn(CC(=O)NCC2CCCO2)c2ccccc12 (stereo unspecified) | – | – | · | · | · | ·
Cc1cc(SCC(=O)NCC2CCCO2)nc2ccccc12 (stereo unspecified) | – | – | · | – | 146 | –
O=C(Cn1cc(C(=O)c2cccs2)c2ccccc21)NCC1CCCO1 (stereo unspecified) | – | – | – | – | – | –
CC1CCN(C(=O)Cn2cc(C#N)c3ccccc32)CC1 | · | – | – | – | – | ·
COc1ccc(CN(C)C[C@@H]2Oc3ccc(NS(=O)(=O)c4ccc(F)cc4)cc3C(=O)N([C@H](C)CO)C[C@@H]2C)cc1 | · | · | – | – | – | ·
CCC(=O)c1cn(CC(=O)NCC2CCCO2)c2ccccc12 (stereo unspecified) | – | – | · | · | – | –
CCOc1ncccc1C(=O)OCC(=O)Nc1cc(S(=O)(=O)N(CC)CC)ccc1C | – | – | – | · | · | ·
CCN(CC)S(=O)(=O)c1ccc(C)c(NC(=O)COC(=O)C=C(C)C)c1 | – | – | – | – | 180 | –
CCNC(=O)C[C@H]1CC[C@H]2[C@H](COc3ccc(NC(=O)c4ccccc4)cc3C(=O)N2C)O1 | · | · | – | – | – | ·
C[C@@H]1CN([C@H](C)CO)C(=O)c2cc(C#CC3CCCCC3)cnc2O[C@@H]1CN(C)Cc1cccnc1 | · | · | – | – | – | ·
Cc1noc(C)c1NC(=O)N(C)C[C@H]1Oc2ncc(C#CC3CCCCC3)cc2C(=O)N([C@H](C)CO)C[C@@H]1C | – | · | – | – | 12 | –
C[C@@H]1CN([C@H](C)CO)C(=O)c2cc(C#CC3CCCCC3)cnc2O[C@H]1CN(C)Cc1cccnc1 | – | – | – | – | 162! | –
Cc1noc(C)c1NC(=O)N(C)C[C@@H]1Oc2ncc(C#CC3CCCCC3)cc2C(=O)N([C@H](C)CO)C[C@H]1C | – | · | – | – | – | ·
COc1cccc(C#Cc2cnc3c(c2)C(=O)N([C@@H](C)CO)C[C@H](C)[C@@H](CN(C)C(=O)C2CCOCC2)O3)c1 | · | · | – | – | – | ·
C[C@H]1CN([C@@H](C)CO)C(=O)c2cc(C#CCC3CCCC3)cnc2O[C@@H]1CN(C)C(=O)CC1CC1 | – | – | – | – | 121! | –
COc1cccc(C#Cc2cnc3c(c2)C(=O)N([C@H](C)CO)C[C@H](C)[C@H](CN(C)C(=O)C2CCOCC2)O3)c1 | · | · | – | – | 125 | –
C[C@@H](NC(=O)C[C@H]1CC[C@@H](NC(=O)C2CC2)[C@H](CO)O1)c1ccccc1 | – | · | – | – | – | ·
CO[C@@H]1CN(C)C(=O)c2ccc(NC(=O)c3cnccn3)cc2OC[C@H](C)N(C(=O)C2CC2)C[C@H]1C | · | · | – | – | – | ·
SMILES | FN deposit inh | hiPSC survival | PGC1a acetyl inh | Statin myotox sup | Yeast UUG start-1 | Yeast UUG start-2
C[C@@H]1CN([C@@H](C)CO)C(=O)c2cc(C#CCc3ccccc3)cnc2O[C@H]1CN(C)CC1CCCC1 | · | · | – | – | 167 | –
O=C(CNC(=S)NC(=O)C1CCCCC1)c1ccccc1 | – | – | – | – | 523 | –
O=C1Nc2ccc([N+](=O)[O-])cc2OC1CCN1CCN(Cc2ccc3c(c2)OCO3)CC1 (stereo unspecified) | – | – | – | – | 611 | –
O=C1Nc2ccc([N+](=O)[O-])cc2OC1CCN1CCN(Cc2ccccc2)CC1 (stereo unspecified) | – | – | – | · | · | –
COc1ccc(N2CCN(CCC3Oc4cc([N+](=O)[O-])ccc4NC3=O)CC2)cc1 (stereo unspecified) | · | – | – | – | – | ·
CCN1CCN(CCC2Oc3cc([N+](=O)[O-])ccc3NC2=O)CC1 (stereo unspecified) | – | – | – | – | – | –
O=Cc1cc([N+](=O)[O-])ccc1N1CCN(Cc2ccc3c(c2)OCO3)CC1 | – | – | – | – | – | ·
C[C@H](CO)N1C[C@H](C)[C@H](CN(C)Cc2ccncc2)Oc2ccc(NC(=O)Nc3ccc4c(c3)OCO4)cc2CC1=O | · | · | – | – | – | ·
O=C(CN1CCOCC1)N1CCN(c2ccc([N+](=O)[O-])cc2)CC1 | – | – | · | · | · | –
O=C(Nc1cnc2ccccc2c1)N1CCCCC1 | · | – | – | · | · | ·
O=C(Nc1cnc2ccccc2c1)N1CCOCC1 | · | – | – | · | 105 | –
C/C=C/c1ccc([C@H]2[C@@H](CO)N(C(=O)COC)[C@H]2CNC(=O)C2CC2)cc1 | – | · | · | · | · | ·
O=C(CSc1nnc2c(n1)[nH]c1ccccc12)OCc1ccccc1 | · | – | – | · | 410 | –
O=C(O)CSc1nnc2c(n1)[nH]c1ccccc12 | – | – | · | · | · | ·
C[C@H](CO)N1C[C@H](C)[C@H](CN(C)S(=O)(=O)c2ccc(Cl)cc2)Oc2ccc(NS(=O)(=O)c3cn(C)cn3)cc2CC1=O | – | · | – | – | – | ·
CC(=O)NCCCc1nc2ccccc2n1Cc1ccccc1F | – | – | – | – | 174 | –
C/C=C/c1cnc2c(c1)C(=O)N([C@@H](C)CO)C[C@@H](C)[C@@H](CN(C)C(=O)c1cccc(F)c1)O2 | – | · | – | – | – | ·
CCc1[nH]c(C)c(C(C)=O)c1C | – | – | – | – | 416 | –
CC(=O)c1c(C)[nH]c(C)c1C(C)=O | – | – | – | – | – | ·
CC(=O)N1[C@H](CO)[C@@H](c2ccccc2)[C@@H]1CN(C(=O)c1cccc(F)c1)C(C)C | – | · | – | – | – | ·
Cc1cc(Cl)ccc1NC(=S)NCCC(c1ccccc1)c1ccccc1 | – | – | – | · | 112 | –
Cc1c(Cl)cccc1NC(=S)NCCC(c1ccccc1)c1ccccc1 | · | – | – | · | – | ·
O=C(C[C@H]1CC[C@H]2[C@@H](COC[C@H](O)CN2Cc2ccccc2F)O1)NC1CCC1 | – | · | – | – | – | ·
CN1C(=O)c2cc(NC(=O)Nc3ccccc3Cl)ccc2OC[C@H]2O[C@H](CC(=O)NCCCN3CCOCC3)CC[C@@H]21 | – | · | · | – | · | ·
C[C@H](CO)N1C[C@H](C)[C@@H](CN(C)S(C)(=O)=O)OCCCC[C@H](C)Oc2ccc(NC(=O)CCCN(C)C)cc2C1=O | · | · | – | – | – | ·
Nc1c(-c2ccccc2)nc(Cl)nc1-c1ccccc1 | – | – | – | – | 133 | –
